## scFv variants of Ab-95 (light chain) against a SARS-CoV-2 spike peptide

Antigen: PDVDLGDISGINAS, a 14-residue peptide of the SARS-CoV-2 spike HR2 region.

Each scFv is VH, three GGGGS repeats, VL, as in the parent Ab-95, and differs from it in the CDRs of the light chain only.
VH: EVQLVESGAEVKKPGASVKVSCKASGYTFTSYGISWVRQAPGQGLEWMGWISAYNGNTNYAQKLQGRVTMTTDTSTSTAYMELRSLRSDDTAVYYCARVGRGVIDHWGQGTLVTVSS
VL: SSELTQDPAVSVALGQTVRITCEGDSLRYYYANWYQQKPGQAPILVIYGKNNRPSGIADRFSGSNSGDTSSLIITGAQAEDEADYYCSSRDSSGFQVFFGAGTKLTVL

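The starting antibody came from a phage panning campaign against this peptide. AAYL52 was designed without a model: most single CDR substitutions and a random sample of double and triple ones. In AlphaSeq, yeast of one mating type display the scFv and yeast of the other type display the target. Mating (16 h, 30 °C) was followed by selection of diploids and sequencing of their barcodes. Each replicate has its own calibration line, from reference interactions of the BCL2 family. Each pool was mated in three replicate cultures.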

The parent's light chain CDRs are EGDSLRYYYAN, GKNNRPS, SSRDSSGFQVF; each variant's own CDRs replace them letter for letter.
Scale: log10 of Kd in nM, estimated from mating counts; low values are strong binders.
A mean of the replicates is given; it leaves out those without a signal.
Where no diploid with the target was found in any replicate, the entry reads "no signal": below detection, most likely a poor binder, though not proof of it.
Nonspecific signal, from three strains lacking the peptide, appeared in 28% of pairings of library AAYL52, centred on 3.91 (5% of these signals below 2.90); values are not corrected for it.

CDR-L1	CDR-L2	CDR-L3	log10 Kd (nM), mean	replicates with signal
EGDSLRYYYAN	GTNNRPS	QSRDESGFQVF	4.31	2/3
EFDSLRYYQAN	GKNNRPS	SSRDSSGFEVF	2.90	3/3
EGDSLRYYYAN	NKNNRPR	SSRDSSGYQVF	3.08	3/3
VGDCLRYYYAN	GKNIRPS	SSRDSSGFQVF	3.26	3/3
ENDSLRYYYAN	WKNNRPS	SSRDVSGFQVF	3.59	3/3
QGDSLRYYYAN	GKNNRPS	RSEDSSGFQVF	4.96	2/3
EGDSLRYYDAN	SKNNRPS	QSRDSSGFQVF	2.19	3/3
EGDSLRYLYAN	GKNNRPS	SSRFSSGFFVF	no signal	0/3
EGDSSRYYYAN	GKNNRPS	SSIDSSGRQVF	4.80	1/3
EGISLRYYYAN	GKNNRPS	HSRDSCGFQVF	4.33	1/3
EGDSLRKYYAN	GKNNKPS	SSRDSSGFQVF	2.56	3/3
KFDSLRYYYAN	GKNNYPS	SSRDSSGFQVF	3.25	1/3
EWGSLRYYYAN	GKNNRPA	SSRDSSGFQVF	no signal	0/3
EIDSLRYYYAN	GKNNRPS	SSRDSSGFGVA	4.08	2/3
EGDSLRYYYAN	GKNNDPS	SLRDVSGFQVF	no signal	0/3
EGWSLRYYYAN	VKNNRPS	SSRDSSGFDVF	3.77	2/3
EGDSLGYYYAN	GKNNRPH	SSRDSSGCQVF	2.92	3/3
EGDSLRYYYAM	GKNNRPS	RPRDSSGFQVF	no signal	0/3
VADSLQYYYAN	GKNNRPS	SSRDSSGFQVF	2.48	3/3
EGDSLRYYYAV	GVNYRPS	SSRDSSGFQVF	3.50	1/3
EGDSLMYYYAN	GKANRPS	SSRYSSGFQVF	4.61	1/3
EGDSLRYYYAS	GKNNRPS	SSRFSSGFHVF	3.81	3/3
EGDKLCYYYAN	GKNNHPS	SSRDSSGFQVF	3.50	1/3
EGDSLRYYYAY	GKNNRLS	SSRMSSGFQVF	4.37	2/3
EGDSLAYYYEN	GKNNRPS	SSRDSSFFQVF	4.23	3/3
EGMALRYYYAN	GKNNRPY	SSRDSSGFQVF	2.42	3/3
EGDSLRYYYAN	GKDNRPS	NSRDSSKFQVF	2.68	3/3
EGDSLRYYYAN	KKVNRPS	SSRDTSGFQVF	3.16	1/3
EGDSLRYYYAW	GKNNAPS	SSRDSSFFQVF	3.91	1/3
EGDLTRYYYAN	GKNNRPS	SSMDSSGFQVF	4.43	1/3
EGDSCRYYYAN	NKCNRPS	SSRDSSGFQVF	4.71	2/3
EGDSLRYYYAN	RKNNRPS	SSRDHSGNQVF	4.50	3/3
EGDSLRYNYAN	GKTNRPS	SSRDSSEFQVF	1.63	3/3

Further variants, results first:

log10 Kd (nM), mean	replicates with signal	CDR-L1	CDR-L2	CDR-L3
2.05	3/3	EGDSLRYDLAN	GKNARPS	SSRDSSGFQVF
3.29	3/3	EGDSLRYYYAN	GKTNRPS	SPRDSSGFQVF
3.81	3/3	TGDSLRYYYAN	GKNNRPS	SSRDSAGFQVT
4.20	1/3	EGDSLRYYYAN	YKNNRPS	SNRDSSQFQVF
3.51	1/3	EGDFLRYYYAN	GKNNNPS	SSRDSSGFQMF
3.11	3/3	ELYTLRYYYAN	GKNNRPS	SSRDSSGFQVF
2.99	3/3	EGDSLRYYYAN	GHNNRPS	SSRDSSGGQVL
3.80	3/3	EGDSLRYYYAN	GKNNIPS	SSRPSHGFQVF
4.66	1/3	EGDSLRYYYLN	GLNNRPS	SSRLSSGFQVF
no signal	0/3	EGDYLRYYYAC	GKNNRPS	SSLDSSGFQVF
2.59	3/3	EGDSLRYYSSN	GKNNRPS	SSRDSSGLQVF
3.64	1/3	EGDSKRYYYAN	GKQNRPS	SSKDSSGFQVF
no signal	0/3	EGDVLRYYYAN	GKNNRPS	TSRDSKGFQVF
3.72	3/3	EGDSLRYYYAN	GKNNRPC	SSRDSSGFQDH
2.80	3/3	EGDSLPYYYAN	GKNNRPS	SGRDSSSFQVF
4.48	1/3	EGDSLRYYYAN	IKNNRPS	SSRDNSPFQVF
3.76	1/3	EGDSLYYYYAN	GKNNRPS	GSRDSSGFWVF
4.70	2/3	EGLSLRVYYIN	GKNNRPS	SSRDSSGFQVF
4.97	1/3	EGDSLRAYYAN	GKNTQPS	SSRDSSGFQVF
1.59	3/3	NGDSLRYYYAN	GKNNRPS	SSRDSSGFLIF
3.59	1/3	EGDSLRYYYAA	GKNNRPS	SSLDSSGIQVF
4.00	1/3	EGDSLRYYYAN	GMNCRPS	SSRDSSGFQGF
no signal	0/3	EADSLRYYYAN	GKNNRPS	SSTDSSGRQVF
3.85	1/3	EGDSLRYYYAN	GLNNRPS	WSRDTSGFQVF
2.21	3/3	EGDSLGYYYAN	GKNNRPS	SSRDSSRFQVF
3.52	1/3	EGDSLRYYYAK	GDNNRPS	ISRDSSGFQVF
2.71	3/3	EGDSLRYYYAN	GKNNRPL	SSRDSSGFQVC
4.40	2/3	EGDSLTYYYAN	GKNNCPS	SSRDSSGFSVF
4.41	1/3	EGDSLRVYYAN	GKNNRKS	SSRDSKGFQVF
2.84	3/3	EGDSLRYYHAN	GKNNEPS	SKRDSSGFQVF
3.06	3/3	EGDSLRWYYAN	GKNNRPL	SSRDSSGFQVF
4.84	2/3	FGDSLNYYYAN	VKNNRPS	SSRDSSGFQVF
3.22	3/3	EGDALRYKYAN	GKNNRPS	SSRESSGFQVF

The closing 11 entries, repeated:

| CDR-L1 | CDR-L2 | CDR-L3 | log10 Kd (nM), mean | replicates with signal |
|---|---|---|---|---|
| EADSLRYYYAN | GKNNRPS | SSTDSSGRQVF | no signal | 0/3 |
| EGDSLRYYYAN | GLNNRPS | WSRDTSGFQVF | 3.85 | 1/3 |
| EGDSLGYYYAN | GKNNRPS | SSRDSSRFQVF | 2.21 | 3/3 |
| EGDSLRYYYAK | GDNNRPS | ISRDSSGFQVF | 3.52 | 1/3 |
| EGDSLRYYYAN | GKNNRPL | SSRDSSGFQVC | 2.71 | 3/3 |
| EGDSLTYYYAN | GKNNCPS | SSRDSSGFSVF | 4.40 | 2/3 |
| EGDSLRVYYAN | GKNNRKS | SSRDSKGFQVF | 4.41 | 1/3 |
| EGDSLRYYHAN | GKNNEPS | SKRDSSGFQVF | 2.84 | 3/3 |
| EGDSLRWYYAN | GKNNRPL | SSRDSSGFQVF | 3.06 | 3/3 |
| FGDSLNYYYAN | VKNNRPS | SSRDSSGFQVF | 4.84 | 2/3 |
| EGDALRYKYAN | GKNNRPS | SSRESSGFQVF | 3.22 | 3/3 |

Data: MIT Lincoln Laboratory AlphaSeq set, Engelhart et al. 2022, doi:10.1038/s41597-022-01779-4, as distributed in FLAb.